Measured values published in ChEMBL document CHEMBL6087473, “Novel PD-L1/VISTA Dual Inhibitor as Potential Immunotherapy Agents” (J Med Chem, 2025).

Chains of the proteins cited; added tags and fusions are not shown. Lines headed by an entry give the natural chain unless they say otherwise; changes in a name come on top.
UniProt Q15116: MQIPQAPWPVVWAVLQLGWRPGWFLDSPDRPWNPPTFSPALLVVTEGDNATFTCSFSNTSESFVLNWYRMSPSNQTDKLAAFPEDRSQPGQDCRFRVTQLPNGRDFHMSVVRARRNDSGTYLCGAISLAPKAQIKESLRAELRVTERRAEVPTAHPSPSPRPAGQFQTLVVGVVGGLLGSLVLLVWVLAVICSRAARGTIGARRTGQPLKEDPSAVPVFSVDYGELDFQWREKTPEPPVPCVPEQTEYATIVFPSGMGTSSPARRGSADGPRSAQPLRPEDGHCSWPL
UniProt Q9NZQ7: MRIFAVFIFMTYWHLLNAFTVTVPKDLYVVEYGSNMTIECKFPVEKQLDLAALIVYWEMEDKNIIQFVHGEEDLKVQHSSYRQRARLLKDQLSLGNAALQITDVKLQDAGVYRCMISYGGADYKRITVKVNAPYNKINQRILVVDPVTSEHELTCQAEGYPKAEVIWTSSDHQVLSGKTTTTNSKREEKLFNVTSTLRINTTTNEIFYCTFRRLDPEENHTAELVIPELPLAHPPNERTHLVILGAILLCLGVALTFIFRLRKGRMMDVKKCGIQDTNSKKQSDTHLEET

Target: Programmed cell death protein 1/Programmed cell death 1 ligand 1 (Homo sapiens) (UniProt Q15116+Q9NZQ7)
Assay: Molecular glue activity at PD-1/PD-L1 interaction in human NCI-H292 cells assessed as inhibition of protein complex incubated for 48 hrs by immunofluorescence based analysis
Type: cell-based
Conditions: dose 0.5-2 µM

In the case of `COc1cc(CN[C@@H](CO)C(=O)O)nc(Nc2cccc(-c3ccccc3)c2C)n1`, the inhibition is reported as “Dose-dependent-effect”.
